Source: ChEMBL document CHEMBL5528068, “Structure-Activity Relationship Studies and Optimization of 4-Hydroxypyridones as GPR84 Agonists” (J Med Chem, 2024)
The source made the active and inactive calls.

How the values were obtained:
Type in all cases: functional, cell-based
[1] = biological target: T1, Free fatty acid receptor 4 (Homo sapiens) (UniProt Q5NUL3); experiment: Agonist activity at FFA4 (unknown origin) expressed in HEK293T cells transfected with YFP/beta-arrestin 2N-Luc at 10 uM incubated for 5 mins by plate reader analysis
T1 sequence (whole entry): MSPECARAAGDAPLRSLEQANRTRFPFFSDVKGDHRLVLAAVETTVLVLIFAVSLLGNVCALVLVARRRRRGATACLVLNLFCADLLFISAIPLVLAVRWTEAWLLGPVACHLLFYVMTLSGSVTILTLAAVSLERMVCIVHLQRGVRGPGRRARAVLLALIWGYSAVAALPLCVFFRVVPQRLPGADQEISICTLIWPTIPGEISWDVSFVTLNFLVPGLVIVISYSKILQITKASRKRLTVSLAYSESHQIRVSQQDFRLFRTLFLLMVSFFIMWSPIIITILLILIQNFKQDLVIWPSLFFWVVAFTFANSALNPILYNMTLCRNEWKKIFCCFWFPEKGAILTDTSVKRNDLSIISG

[2] = biological target: T2, Free fatty acid receptor 2 (Homo sapiens) (UniProt O15552); experiment: Antagonist activity at Gq-coupled human FFA2 expressed in Flp-In-T-REx-293 cells assessed as reduction in forskolin induced cAMP production at 10 uM preincubated for 20 mins in presence of IBMX followed by sodium propionate and forskolin addition for 25 mins by time-resolved fluorescence based assay; settings: time 45.0 min
T2 sequence (whole entry): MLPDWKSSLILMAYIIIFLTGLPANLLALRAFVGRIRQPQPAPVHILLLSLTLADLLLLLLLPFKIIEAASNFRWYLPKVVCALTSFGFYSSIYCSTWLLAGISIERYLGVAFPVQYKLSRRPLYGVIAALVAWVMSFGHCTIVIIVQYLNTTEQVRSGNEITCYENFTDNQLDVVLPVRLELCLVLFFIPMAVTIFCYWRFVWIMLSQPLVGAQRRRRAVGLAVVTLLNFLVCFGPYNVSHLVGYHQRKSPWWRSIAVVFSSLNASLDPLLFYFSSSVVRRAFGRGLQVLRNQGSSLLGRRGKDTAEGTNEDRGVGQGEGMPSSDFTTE

[3] = biological target: T3, Free fatty acid receptor 3 (Homo sapiens) (UniProt O14843); experiment: Antagonist activity at human FFA3 expressed in Flp-In-T-REx-293 cells assessed as reduction in forskolin induced cAMP production at 10 uM preincubated for 30 mins in presence of IBMX followed by sodium propionate and forskolin addition for 45 mins by time-resolved fluorescence based assay; settings: time 75.0 min
T3 sequence (whole entry): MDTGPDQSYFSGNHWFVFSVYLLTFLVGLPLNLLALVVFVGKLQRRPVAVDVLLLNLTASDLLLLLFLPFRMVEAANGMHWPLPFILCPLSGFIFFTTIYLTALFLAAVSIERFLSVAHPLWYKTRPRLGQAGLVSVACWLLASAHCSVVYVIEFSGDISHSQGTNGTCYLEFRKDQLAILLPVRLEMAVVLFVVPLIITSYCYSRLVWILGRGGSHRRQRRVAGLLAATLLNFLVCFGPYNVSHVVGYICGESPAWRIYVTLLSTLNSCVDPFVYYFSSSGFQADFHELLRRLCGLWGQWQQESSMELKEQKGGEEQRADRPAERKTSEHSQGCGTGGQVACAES

[4] = biological target: T2, Free fatty acid receptor 2 (Homo sapiens); experiment: Agonist activity at Gq-coupled human FFA2 expressed in Flp-In-T-REx-293 cells assessed as forskolin induced cAMP production at 10 uM incubated for 25 mins in presence of IBMX by time-resolved fluorescence based assay
[5] = biological target: T1, Free fatty acid receptor 4 (Homo sapiens); experiment: Antagonist activity at FFA4 (unknown origin) expressed in HEK293T cells transfected with YFP/beta-arrestin 2N-Luc at 10 uM preincubated for 15 mins prior to Nano-Glo addition for 10 mins followed by TUG-891 addition for 5 mins by plate reader analysis; settings: time 30.0 min
[6] = biological target: T3, Free fatty acid receptor 3 (Homo sapiens); experiment: Agonist activity at human FFA3 expressed in Flp-In-T-REx-293 cells assessed as forskolin induced cAMP production at 10 uM incubated for 45 mins in presence of IBMX by time-resolved fluorescence based assay

Measured: Activity

CCCc1ccc(CCc2cc(O)cc(=O)[nH]2)cc1
inactive: [1] | [2] | [3] | [4] | [5] | [6]

O=c1cc(O)cc(-c2ccc(Oc3ccccc3)nc2)[nH]1
inactive: [1] | [2] | [3] | [4] | [5] | [6]
